# Earlier results in patent US20030073069A1, “Drug rescue by redesign of ADMET/PK properties” (priority 2001, published 2003).
# Legend:
# [1] = tested on: P450
# [2] = tested on: P450; settings: induction of a P450
compound,measurement,setting,value
CO[C@H]1/C=C/O[C@@]2(C)Oc3c(C)c(O)c4c(O)c(c(/C=N/N5CCN(C)CC5)c(O)c4c3C2=O)NC(=O)/C(C)=C\C=C\[C@H](C)[C@H](O)[C@@H](C)[C@@H](O)[C@@H](C)[C@H](OC(C)=O)[C@@H]1C [rifampin],"No. of currently known drug interactions that involve the compound, Inhibition",[1],2
CN(C)CCOc1ccc(/C(=C(/CCCl)c2ccccc2)c2ccccc2)cc1 [toremifene],"No. of currently known drug interactions that involve the compound, Induction",[2],3
